Measurements: patent US7153979B2, “Triterpene derivatives and remedies for liver diseases” (Meiji Seika Kaisha, Ltd., priority 1996, dated 2006)

Test system: Hep G2 cells

Substance | hepatocytotoxicity inhibitory activity
3β,24(4β)-Diacetoxyolean-12-ene-21β,22β-diol [Compound 20] | not less than 5%
3β,24(4β)-Dimethoxyolean-12-ene-21β,22β-diol [Compound 22] | not less than 5%
12α,13α-Epoxyoleanane-3β,22β,24(4β)-triol [Compound 2] | not less than 5%
21,22-Dioxolean-12-ene-3β,24(4β)-diol [Compound 36] | not less than 5%
21-Oxolean-12-en-3β,24(4β)-diol [Compound 66] | not less than 5%
21β,22β-Diacetoxyolean-12-ene-3β,24(4β)-diol [Compound 26] | not less than 5%
21β-Acetoxyolean-12-ene-3β,22β,24(4β)triol [Compound 27] | not less than 5%
21β-Methoxyolean-12-ene-3β,22β,24(4β)-triol [Compound 33] | not less than 5%
22-Oxolean-12-ene-3β,21β,24(4β)-triol [Compound 37] | not less than 5%
22β-Anilinocarbonyloxyolean-12-ene-3β,24(4β)-diol [Compound 73] | not less than 5%
22β-Benzyloxyacetyloxyolean-12-ene-3β,24(4β)-diol [Compound 10] | not less than 5%
22β-Methoxy-12,13-epoxyoleanane-3β,24(4β)-diol [Compound 6] | not less than 5%
22β-Methoxyolean-12-ene-3β,21β,24(4β)-triol [Compound 32] | not less than 5%
N-n-Butyl-3β,22β-dihydroxyolean-12-en-24(4β)-oic amide [Compound 17] | not less than 5%
Olean-12-ene-3β,21α,24(4β)-triol [Compound 49] | not less than 5%
Olean-12-ene-3β,21β,24(4β)-triol [Compound 46] | not less than 5%
